Literature values in publication PMC8963331 (Toxicological Sciences, 2022).

Conditions: mice; 10 mg/kg oral; ref Sandborn et al., 2020; cited from earlier work

## C[C@@H]1CCN(C(=O)CC#N)C[C@@H]1N(C)c1ncnc2[nH]ccc12 [tofacitinib, reference compound]
  colon:plasma AUC ratio: 41
